Assay results taken from PubChem BioAssay AID1259313 (Sanford-Burnham Center for Chemical Genomics, 2017).
Only a part is listed here, and it is no random draw. Some results for these compounds are left out of this collection, so the calls shown say nothing about other tests. Active and inactive are the calls of the source.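 Rule for the calls: active = melting temperature shift of at least 10% of the positive control shift, at one fixed dose; inactive = the rest.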

These molecules were tested on Glutamate receptor ionotropic, NMDA 3A (GRIN3A) ligand-binding domain (assay: binders of NR3A ligand-binding domain, primary screen, biophysical, differential scanning fluorimetry, uHTS (AID 1259313)). Conditions: NR3A LBD differential scanning fluorimetry, at 25 µM, hits give high values, 0% = protein alone, 100% = glycine-bound protein.

Row | Structure (SMILES) | Tm shift relative to glycine control
1 | Cc1ccccc1C(=O)NCC1(N2CCCCC2)CCCCC1 | inactive: -0.93%
2 | CN(C)c1ccc(C(=O)NCC2(N(C)C)CCCCC2)cc1 | inactive: -2.23%
3 | CN(C)C1CCCC1OC(=O)C(O)(c1ccccc1)c1ccccc1 (stereo not given) | inactive: 0.38%
4 | CCN1CCCC(OC(=O)C2(O)c3ccccc3C=Cc3ccccc32)C1 (stereo not given) | inactive: -0.67%
5 | Cc1cc(C(=O)NCC2(N3CCCCC3)CCCCC2)ccc1[N+](=O)[O-] | inactive: 0.97%
6 | O=C(NCC1(N2CCCCC2)CCCCC1)c1cccc(Br)c1 | inactive: -1.01%
7 | COc1ccc(C(=O)NCC2(N(C)C)CCCCC2)cc1 | inactive: 0.86%
8 | C=CCN1CCN(CCOC(=O)C(O)(c2ccccc2)c2ccccc2)CC1 | inactive: -2.3%
9 | O=C(NCC1(N2CCCCC2)CCCCC1)c1cc(F)c(F)cc1Cl | inactive: -1.48%
10 | CN1[C@@H]2CC[C@H]1CC(OC(=O)C(O)(c1ccccc1)c1ccccc1)C2 (stereo not given in full) | inactive: -0.52%
11 | O=C(NCC1(N2CCCCC2)CCCCC1)c1cc([N+](=O)[O-])ccc1Cl | inactive: -1.67%
12 | Cc1ccc(C(=O)NCC2(N3CCCCC3)CCCCC2)cc1 | inactive: -0.8%
13 | CC(C)N1C(=O)CC2(CCN(CCOC(=O)C(O)(c3ccccc3)c3ccccc3)CC2)C1=O | inactive: 1.16%
14 | CCN(CC)CC(C)C(C)OC(=O)C(O)(c1ccccc1)c1ccccc1 (stereo not given) | inactive: -1.68%
15 | COc1cc(SC)ccc1C(=O)NCC1(N(C)C)CCCCC1 | inactive: -0.29%
16 | O=C(OC1CN2CCC1CC2)C(CO)(c1ccccc1)c1ccccc1 (stereo not given) | inactive: 0.05%
17 | CN(C)c1cccc(C(=O)NCC2(N(C)C)CCCCC2)c1 | inactive: -0.24%
18 | CC(C)Oc1ccc(C(=O)NCC2(N(C)C)CCCCC2)cc1 | inactive: -2.23%
19 | O=C(OCCN1CCCC1)C(O)(c1ccccc1)c1ccccc1 | inactive: 0.42%
20 | COc1ccc(Br)c(C(=O)NCC2(N3CCCCC3)CCCCC2)c1 | inactive: -0.69%
21 | COc1cc(C(=O)NCC2(N(C)C)CCCCC2)c([N+](=O)[O-])cc1OC | inactive: 0.18%
22 | CN(C)C1(CNC(=O)c2ccc(Br)cc2)CCCCC1 | inactive: -0.4%
23 | O=C(NCC1(N2CCCCC2)CCCCC1)c1cccc(Cl)c1 | inactive: 0.95%
24 | COc1cccc(C(=O)NCC2(N3CCCCC3)CCCCC2)c1 | inactive: 2.38%
25 | COc1ccc(Cl)cc1C(=O)NCC1(N(C)C)CCCCC1 | inactive: -0.74%
